Test [1] has as its system N87 cells. The test is described as follows: Antibody internalisation, pHrodo imaging, N87. Format: cell-based. The note with it: 120 nM, 24 hours.
The test system of test [2] is N87 cells. The test is described as follows: Antibody internalisation by flow cytometry. Format: cell-based. To be noted: N87, 0 min to 4.5 hour. Background: A flow cytometer gives signals particle by particle.

Consider 1 substance from US10662241B1, “HER3 antigen-binding molecules” (Hummingbird Bioscience Holdings Pte. Ltd., priority 2019, dated 2020).

On to “trastuzumab: anti-HER2 antibody trastuzumab [reference compound]”, for which the Internalisation entry with N87 cells [1] is “modest internalization”; with N87 cells [2], “substantial internalisation”.
